From US20240076360A1 (University of Pennsylvania, published 2024)

Amino acid sequences for entries named in this document (tags omitted). Residues count along the entry.
UniProt P01031, 19-1676 limits assumed: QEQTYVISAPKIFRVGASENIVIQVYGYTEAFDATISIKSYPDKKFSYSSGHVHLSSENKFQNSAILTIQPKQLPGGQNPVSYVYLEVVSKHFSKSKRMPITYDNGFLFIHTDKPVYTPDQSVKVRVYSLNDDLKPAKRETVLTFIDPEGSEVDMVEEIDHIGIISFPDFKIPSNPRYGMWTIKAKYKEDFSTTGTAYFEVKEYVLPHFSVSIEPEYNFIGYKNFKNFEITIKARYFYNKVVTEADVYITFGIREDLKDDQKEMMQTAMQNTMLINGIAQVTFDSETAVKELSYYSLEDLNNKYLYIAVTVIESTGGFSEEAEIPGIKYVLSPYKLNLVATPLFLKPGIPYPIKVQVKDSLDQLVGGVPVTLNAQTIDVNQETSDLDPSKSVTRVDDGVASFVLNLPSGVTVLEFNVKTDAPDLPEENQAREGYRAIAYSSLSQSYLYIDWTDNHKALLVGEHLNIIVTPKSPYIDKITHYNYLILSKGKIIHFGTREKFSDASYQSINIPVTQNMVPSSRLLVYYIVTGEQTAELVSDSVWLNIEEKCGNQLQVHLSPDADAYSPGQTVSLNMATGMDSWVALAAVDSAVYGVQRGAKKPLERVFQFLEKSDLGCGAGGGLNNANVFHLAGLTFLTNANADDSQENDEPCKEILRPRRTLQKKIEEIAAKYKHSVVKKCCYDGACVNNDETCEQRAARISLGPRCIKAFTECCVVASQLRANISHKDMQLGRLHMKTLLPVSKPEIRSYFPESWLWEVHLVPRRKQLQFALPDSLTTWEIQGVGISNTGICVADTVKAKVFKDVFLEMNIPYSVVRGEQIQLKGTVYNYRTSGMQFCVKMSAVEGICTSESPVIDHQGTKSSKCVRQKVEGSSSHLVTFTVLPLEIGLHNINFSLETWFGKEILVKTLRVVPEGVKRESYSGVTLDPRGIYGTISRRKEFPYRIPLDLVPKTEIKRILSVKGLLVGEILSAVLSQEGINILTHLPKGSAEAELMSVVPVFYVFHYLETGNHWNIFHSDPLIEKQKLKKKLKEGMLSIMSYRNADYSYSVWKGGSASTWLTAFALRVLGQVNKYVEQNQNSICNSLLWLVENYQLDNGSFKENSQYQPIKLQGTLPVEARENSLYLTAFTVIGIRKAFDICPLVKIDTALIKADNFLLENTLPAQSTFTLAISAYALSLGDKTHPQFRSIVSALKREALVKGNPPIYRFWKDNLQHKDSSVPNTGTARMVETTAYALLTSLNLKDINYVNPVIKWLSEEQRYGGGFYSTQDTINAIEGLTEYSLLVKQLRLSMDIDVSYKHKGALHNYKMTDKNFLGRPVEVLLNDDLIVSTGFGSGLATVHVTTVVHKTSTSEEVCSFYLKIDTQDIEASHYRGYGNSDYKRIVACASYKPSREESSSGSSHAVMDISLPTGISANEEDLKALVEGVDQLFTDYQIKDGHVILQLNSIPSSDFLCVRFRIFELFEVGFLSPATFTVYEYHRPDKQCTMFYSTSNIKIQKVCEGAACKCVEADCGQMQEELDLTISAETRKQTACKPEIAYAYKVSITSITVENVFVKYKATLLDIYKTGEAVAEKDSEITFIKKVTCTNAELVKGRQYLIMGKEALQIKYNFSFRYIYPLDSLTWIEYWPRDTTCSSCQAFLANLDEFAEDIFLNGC

Molecular target: T1, human C5 (human, UniProt P01031 19-1676)
T1 construct: BLI used 'human C5' of unstated source; lysis assays used C5 of normal human serum; also called C5 (human); complement C5
Test: BLI (Gator), immobilized antibody, human C5 0.625-40 nM, association and dissociation pH 7.4
Description: The 8 histidine mutation-containing anti-C5 antibodies, including Y32H/Q38R, were tested for their pH dependence in C5 binding assays. ALXN1210, a pH-dependent binding variant of Eculizumab (U.S. Pat. No. 9,079,949) was used as a reference. A Biolayer interferometry instrument, Gator™ (Probe life Inc., USA) was used to determine pH dependent dissociation of histidine mutants and the benchmark antibodies. Briefly, anti-human IgG Fc (FHC) Probes were equilibrated in the kinetic (K) buffer of Phosphate-buffered saline containing 0.02% bovine serum albumin and 0.002% Tween20 pH 7.4. Antibodies were captured onto the sensors by dipping them into 200 μL of transfection supernatant for 600 s at pH 7.4. The biosensors were then incubated with human C5 prepared in the K buffer pH 7.4 (40 nM) for 600 s followed by 600-second dissociation period in K Buffer, pH 7.4 or pH 5.8. The data were processed and analyzed by the Gator evaluation software.
Experiment was performed to compare the pH-dependent C5 binding properties of Y32H/Q38R/L54H, Eculizumab and ALXN1210. C5 binding to probe-immobilized antibodies was allowed proceed at pH 7.4 for 600 s, followed by a 600 s dissociation period in K Buffer, pH 7.4 or pH 5.8. The data were processed and analyzed by the Gator evaluation software. […] Conversely, Y32H/Q38R/L54H has less dissociation at pH 7.4 than ALXN1210 and faster dissociation at pH 7.4 than Eculizumab.

B1: ALXN1210 (antibody, V domains shown)
VH: QVQLVQSGAEVKKPGASVKVSCKASGHIFSNYWIQWVRQAPGQGLEWMGEILPGSGHTEYTENFKDRVTMTRDTSTSTVYMELSSLRSEDTAVYYCARYFFGSSPNWYFDVWGQGTLVTVSS
VL: DIQMTQSPSSLSASVGDRVTITCGASENIYGALNWYQQKPGKAPKLLIYGATNLADGVPSRFSGSGSGTDFTLTISSLQPEDFATYYCQNVLNTPLTFGQGTKVEIK
Kd: 1.21 nM
koff: 0.000152 s⁻¹
kon: 126000 M⁻¹ s⁻¹
